Laboratory results published in publication PMC13181782, “Development of Biphenyl-Substituted Uracil-Based Hydroxamic Acids (UBHAs) as Potent HDAC Inhibitors with Pro-Apoptotic Activity in Leukemia and Prostate Cancer Cells” (Journal of Medicinal Chemistry, 2026).

The chains behind the UniProt entries cited, without tags or fusion partners.
UniProt Q13547, whole entry: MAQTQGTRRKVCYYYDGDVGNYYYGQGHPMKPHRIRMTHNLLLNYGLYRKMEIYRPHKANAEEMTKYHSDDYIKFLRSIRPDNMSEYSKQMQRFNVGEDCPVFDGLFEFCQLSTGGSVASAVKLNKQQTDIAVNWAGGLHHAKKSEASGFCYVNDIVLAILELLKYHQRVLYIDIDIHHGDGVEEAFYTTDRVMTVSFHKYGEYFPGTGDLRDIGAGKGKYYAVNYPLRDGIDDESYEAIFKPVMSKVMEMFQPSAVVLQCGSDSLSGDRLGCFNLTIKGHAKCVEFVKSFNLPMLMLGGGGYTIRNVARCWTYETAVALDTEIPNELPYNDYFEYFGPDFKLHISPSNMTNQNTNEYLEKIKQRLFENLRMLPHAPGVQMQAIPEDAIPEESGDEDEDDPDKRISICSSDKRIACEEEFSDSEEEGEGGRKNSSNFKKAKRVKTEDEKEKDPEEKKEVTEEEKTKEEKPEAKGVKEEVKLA

Molecular target: hrHDAC1 (Homo sapiens, UniProt Q13547)
Test: HDAC1 inhibition assay, fluorogenic peptide
Assay type: biochemical
Settings: 10-dose, 3-fold serial dilution from 100 μM; read-out: IC50 HDAC 1

## O=C(CCCCSc1nc(-c2ccc(-c3ccccc3)cc2)cc(=O)[nH]1)NO [Compound 14a]
  IC50: 0.101 µM
